Literature values, collected in US20110111013A1.
This is a selection: effects in other tests are not listed, and their absence says nothing.

Details: Roy et al., J. Pharm. Sci. 1996

CCC(=O)N(c1ccccc1)C1CCN(CCc2ccccc2)CC1
concentration of fentanyl in the polyisobutylene matrix above which active ingredient precipitates: more than 4%
